We go through one substance from patent US20060104907A1, “Biologically potent analogues of the Dmt-Tic pharmacophore and methods of use” (Government of the U.S.A., represented by the Secretary, …, priority 2004, published 2006).

The chains behind the UniProt entries cited, without tags or fusion partners. Where a name states a change or a piece, a line headed by the entry shows the natural chain unless it says otherwise.
UniProt P32300, whole entry: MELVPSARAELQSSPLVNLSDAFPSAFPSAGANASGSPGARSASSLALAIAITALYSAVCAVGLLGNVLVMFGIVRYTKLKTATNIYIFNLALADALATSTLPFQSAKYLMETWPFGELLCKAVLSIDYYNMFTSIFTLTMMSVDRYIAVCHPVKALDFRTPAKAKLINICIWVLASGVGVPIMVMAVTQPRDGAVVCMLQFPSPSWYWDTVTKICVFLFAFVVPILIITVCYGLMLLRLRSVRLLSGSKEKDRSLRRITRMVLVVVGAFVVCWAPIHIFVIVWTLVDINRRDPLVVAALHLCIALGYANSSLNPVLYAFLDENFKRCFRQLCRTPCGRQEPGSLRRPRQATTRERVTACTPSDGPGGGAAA

The target in one assay is δ-opioid receptor (Homo sapiens, UniProt P41143). Conditions: Arttamangkul et al., Mol. Pharmacol. 2000; cited from earlier work.
The next assay addresses T1, δ-opioid receptors (Mus musculus, UniProt P32300).
T1 construct: preparations of mouse vas deferens (MVD, containing δ-opioid receptors); from tissue; host or cells: mouse vas deferens
Kind of assay: Functional bioactivity in mouse vas deferens (MVD), electrically-evoked twitch. Conditions: agonist alone. The format is cell-based. The procedure:
Preparations of myenteric plexus-longitudinal muscle obtained from male guinea-pig ileum (GPI, enriched in μ-opioid receptors) and preparations of mouse vas deferens (MVD, containing δ-opioid receptors) were used for field stimulation with bipolar rectangular pulses of supramaximal voltage (Melchiorri et al., Eur. J. Pharm., 195: 201-207 (1991)). Agonists were evaluated for their ability to inhibit the electrically-evoked twitch. The biological potency of the compounds was compared with that of the μ-opioid receptor agonist dermorphin in GPI and with that of the δ-opioid receptor agonist deltorphin C in MVD. The results are expressed as the IC50 values obtained from dose-response curves (Prism™, GraphPad). To evaluate antagonistic properties, compounds 2 and 3 were added to the bath and allowed to interact with tissue receptor sites 5 min before adding deltorphin C. The IC50 values (nM) represent the mean of not less than six fresh tissue samples±SE. […] IC50 and pA2 values (nM) are mean ±SE of at least six experiments conducted with fresh tissues.

Turning to “Tyr-D-Ala-Phe-Asp-Val-Val-Gly-NH2 [[D-Ala^2]deltorphin I, reference compound]”, at δ-opioid receptor, the δ-selectivity is 9,000. Besides, the “Hill slope of [D-Ala2]deltorphin I log dose-response curve” value at δ-opioid receptors worked out at 1.4.
